Details: single 5 mg peribulbar injection; assuming a vitreous volume of 4-5 ml

Work on `C[C@@H]1C[C@H]2[C@@H]3CCC4=CC(=O)C=C[C@]4(C)[C@@]3(F)[C@@H](O)C[C@]2(C)[C@@]1(O)C(=O)CO` [Dexamethasone] yielded a vitreous concentration of 0.10 to 0.13 µM.

Reference: patent US9629826B2, “CAI-based systems and methods for the localized treatment of uveitis” (Gen Pharma Holdings, LLC., priority 2014, dated 2017)
